Target: EcPDF (Escherichia coli, UniProt P0A6K3)
Settings: read-out: EcPDF IC50, FP assay; dose response, 12 point doubling dilutions, upper limit 100 μM

Chains of the proteins cited; added tags and fusions are not shown. Lines headed by an entry give the natural chain unless they say otherwise; changes in a name come on top.
UniProt P0A6K3: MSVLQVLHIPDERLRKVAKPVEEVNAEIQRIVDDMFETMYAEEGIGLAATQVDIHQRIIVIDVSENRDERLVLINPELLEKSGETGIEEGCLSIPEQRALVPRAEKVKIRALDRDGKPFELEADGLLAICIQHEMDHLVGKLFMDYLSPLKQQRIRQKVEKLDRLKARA

With COc1ccc(C(=O)c2coc3c2C(=O)C(=O)C(Cl)=C3Cl)cc1OC [SKC-BF-10, 6,7-Dichloro-3-(3,4-dimethoxy-benzoyl)-benzofuran-4,5-dione] the IC50 was 67 µM.
